Test results reported in patent publication US9884839B2, “Inhibitors of 17Beta-hydroxysteroid dehydrogenases type 1 and type 2” (ElexoPharm GmbH, priority 2014, dated 2018).

What was measured:
mouse 17β-HSD2 = biological target: T1, mouse 17β-HSD2 (Mus musculus, UniProt P51658); assay: Inhibition of mouse 17β-HSD2 (liver microsomal fraction); settings: IC50 m17β-HSD2, mouse liver microsomal fraction, E2 10 nM, NAD+
T1 sequence (P51658 1-381): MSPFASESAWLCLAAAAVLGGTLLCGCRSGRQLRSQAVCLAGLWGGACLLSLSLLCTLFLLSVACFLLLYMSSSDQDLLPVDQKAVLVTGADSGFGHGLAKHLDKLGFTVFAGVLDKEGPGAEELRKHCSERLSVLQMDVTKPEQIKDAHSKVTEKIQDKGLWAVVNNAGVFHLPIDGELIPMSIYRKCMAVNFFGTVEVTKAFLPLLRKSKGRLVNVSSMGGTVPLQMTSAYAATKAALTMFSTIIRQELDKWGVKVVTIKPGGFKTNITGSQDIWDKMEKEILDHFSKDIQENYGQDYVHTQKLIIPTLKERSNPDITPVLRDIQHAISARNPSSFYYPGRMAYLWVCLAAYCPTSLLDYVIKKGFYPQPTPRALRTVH

human 17β-HSD2 = biological target: T2, human 17β-HSD2 (Homo sapiens, UniProt P37059); assay: Inhibition of human 17β-HSD2 (conversion of [3H]-E2 to E1)
T2 sequence (P37059 1-387): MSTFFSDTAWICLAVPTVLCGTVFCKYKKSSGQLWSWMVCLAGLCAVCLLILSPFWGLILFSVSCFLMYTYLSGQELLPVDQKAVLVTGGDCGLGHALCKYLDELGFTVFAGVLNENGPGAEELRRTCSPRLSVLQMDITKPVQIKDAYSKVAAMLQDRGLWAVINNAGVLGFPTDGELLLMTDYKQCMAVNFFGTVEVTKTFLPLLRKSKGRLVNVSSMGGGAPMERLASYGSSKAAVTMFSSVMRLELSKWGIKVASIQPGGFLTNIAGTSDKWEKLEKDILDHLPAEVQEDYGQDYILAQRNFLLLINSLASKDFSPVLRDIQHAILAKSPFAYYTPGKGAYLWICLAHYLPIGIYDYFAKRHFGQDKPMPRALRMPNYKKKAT

rat 17β-HSD2 = biological target: T3, rat 17β-HSD2 (Rattus norvegicus, UniProt Q62730); assay: Inhibition of rat 17β-HSD2 (liver microsomal fraction); format: biochemical; settings: read-out: % Inhibition r17β-HSD2
T3 construct: The pellet fractions containing the microsomal 17β-HSD2 were used for the determination of E1 formation; from tissue; host or cells: rat liver, microsomal fraction
T3 sequence (Q62730 1-381): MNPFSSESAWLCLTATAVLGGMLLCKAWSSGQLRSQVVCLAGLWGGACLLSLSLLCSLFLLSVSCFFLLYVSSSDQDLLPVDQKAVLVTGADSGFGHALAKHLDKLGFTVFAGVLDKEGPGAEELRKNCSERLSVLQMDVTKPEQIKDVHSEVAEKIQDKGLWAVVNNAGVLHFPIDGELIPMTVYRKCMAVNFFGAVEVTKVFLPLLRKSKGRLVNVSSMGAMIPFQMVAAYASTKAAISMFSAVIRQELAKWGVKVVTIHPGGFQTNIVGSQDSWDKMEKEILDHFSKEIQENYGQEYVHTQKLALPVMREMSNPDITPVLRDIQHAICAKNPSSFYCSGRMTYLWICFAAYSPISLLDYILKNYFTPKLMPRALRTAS

SMILES: O=C(c1ccc(-c2cccc(NS(=O)(=O)c3ccc(Br)cc3OC(F)(F)F)c2)s1)c1cc(F)c(F)c(O)c1F
IC50 (mouse 17β-HSD2): 90 nM and 12.5 nM

SMILES: O=C(c1cccc(O)c1)c1ccc(-c2ccc(F)cc2F)s1 [A, reference compound]
inhibition at 1 µM (human 17β-HSD2; read-out: % inhibition h17β-HSD2 @ 1 μM): 35%

inhibition at […] (rat 17β-HSD2): 48%
SMILES: Nc1cccc(-c2ccc(C(=O)c3c(F)ccc(O)c3F)s2)c1 [Compound 1, [5-(3-Aminophenyl)thiophen-2-yl](2,6-difluoro-3-hydroxyphenyl)methanone]

SMILES: COc1c(C)cc(-c2ccc(C(=O)c3c(F)ccc(O)c3F)s2)cc1Cl [Compound 26, [5-(3-Chloro-4-methoxy-5-methyl-phenyl)-thiophen-2-yl]-(2,6-difluoro-3-hydroxy-phenyl)-methanone]
IC50 (human 17β-HSD2): 7 nM

SMILES: Cc1cc(-c2ccc(C(=O)c3c(F)ccc(O)c3F)s2)cc(Cl)c1O [Compound 27, [5-(3-Chloro-4-hydroxy-5-methyl-phenyl)-thiophen-2-yl]-(2,6-difluoro-3-hydroxy-phenyl)-methanone]
IC50 (human 17β-HSD2): 7 nM

SMILES: O=C(c1ccc(-c2cccc(NS(=O)(=O)c3ccccc3C(F)(F)F)c2)s1)c1cc(F)c(F)c(O)c1F [Compound 38, N-{3-[5-(2,4,5-Trifluoro-3-hydroxybenzoyl)thiophen-2-yl]phenyl}-2-trifluoromethylbenzenesulfonamide]
IC50 (mouse 17β-HSD2): 36 nM

inhibition at 0.1 µM (human 17β-HSD2; read-out: % inhibition h17β-HSD2 @ 100 nM): 56%
SMILES: Cc1ccc(C(=O)c2cc(F)c(F)c(O)c2F)s1 [Compound 73, (5-Methylthiophen-2-yl)(2,4,5-trifluoro-3-hydroxyphenyl)methanone]

“And” between values parts separate entries of the source, which are not always exact repeats. Equal values may be shown once. One block for each molecule: values may come before it.
